{"sequences": {"note": "Sequences of proteins named here, by UniProt entry; tags and fusion partners are left off. Residues count along the entry.", "UniProt P02768, 25-609": "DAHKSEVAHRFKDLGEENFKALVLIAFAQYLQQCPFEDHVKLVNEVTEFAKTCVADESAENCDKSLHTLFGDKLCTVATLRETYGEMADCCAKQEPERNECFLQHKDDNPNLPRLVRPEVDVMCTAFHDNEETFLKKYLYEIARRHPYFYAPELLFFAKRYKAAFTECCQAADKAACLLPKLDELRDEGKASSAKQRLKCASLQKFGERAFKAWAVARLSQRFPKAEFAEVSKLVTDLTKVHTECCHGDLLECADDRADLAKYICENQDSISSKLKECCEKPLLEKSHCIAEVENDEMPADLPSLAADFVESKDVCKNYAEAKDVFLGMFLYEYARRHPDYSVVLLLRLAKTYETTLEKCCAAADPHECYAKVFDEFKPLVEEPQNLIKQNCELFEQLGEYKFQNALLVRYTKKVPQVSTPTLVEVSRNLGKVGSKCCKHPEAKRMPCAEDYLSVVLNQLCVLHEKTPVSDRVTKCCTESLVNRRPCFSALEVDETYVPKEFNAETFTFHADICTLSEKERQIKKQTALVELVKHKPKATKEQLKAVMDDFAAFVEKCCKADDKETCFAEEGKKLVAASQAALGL"}, "source": "patent US8735439B2", "about": "“Chlorin e6-folic acid conjugate, preparation method thereof, and a pharmaceutical composition for the treatment of cancer comprising the same” (Diatech Korea Co., Ltd., priority 2009, dated 2014)", "molecular_target": "human serum albumin (Homo sapiens, UniProt P02768)", "description": "Pigment-protein complexes have been formed by adding to the solution of human serum albumin (HAS) a specific amount of photosensitizer dissolved in the same buffer. […] Similarly, the photosensitizer was included in detergent micelle (Triton X-100, C=10^−3M).\nwherein r and C are the respectively concentrations of bound and unbound protein pigment, r+C=CΣ. […] It is also applicable with respect to pigment molecules included in Triton X-100 micelle."}
{"substance": "[γ-(6-aminohexyl)folic acid]-chlorin e6 [chlorin e6 conjugate]", "values": [{"measurement": "share of sensibilizer molecules involved in pigment-protein complex", "value": 90, "unit": "%"}]}
